Measurements reported in the Kinase Knowledgebase extract (Sharma et al. 2016).

By UniProt entry, the sequences of proteins in these tests, tags left out.
UniProt P00533, whole entry, looked up: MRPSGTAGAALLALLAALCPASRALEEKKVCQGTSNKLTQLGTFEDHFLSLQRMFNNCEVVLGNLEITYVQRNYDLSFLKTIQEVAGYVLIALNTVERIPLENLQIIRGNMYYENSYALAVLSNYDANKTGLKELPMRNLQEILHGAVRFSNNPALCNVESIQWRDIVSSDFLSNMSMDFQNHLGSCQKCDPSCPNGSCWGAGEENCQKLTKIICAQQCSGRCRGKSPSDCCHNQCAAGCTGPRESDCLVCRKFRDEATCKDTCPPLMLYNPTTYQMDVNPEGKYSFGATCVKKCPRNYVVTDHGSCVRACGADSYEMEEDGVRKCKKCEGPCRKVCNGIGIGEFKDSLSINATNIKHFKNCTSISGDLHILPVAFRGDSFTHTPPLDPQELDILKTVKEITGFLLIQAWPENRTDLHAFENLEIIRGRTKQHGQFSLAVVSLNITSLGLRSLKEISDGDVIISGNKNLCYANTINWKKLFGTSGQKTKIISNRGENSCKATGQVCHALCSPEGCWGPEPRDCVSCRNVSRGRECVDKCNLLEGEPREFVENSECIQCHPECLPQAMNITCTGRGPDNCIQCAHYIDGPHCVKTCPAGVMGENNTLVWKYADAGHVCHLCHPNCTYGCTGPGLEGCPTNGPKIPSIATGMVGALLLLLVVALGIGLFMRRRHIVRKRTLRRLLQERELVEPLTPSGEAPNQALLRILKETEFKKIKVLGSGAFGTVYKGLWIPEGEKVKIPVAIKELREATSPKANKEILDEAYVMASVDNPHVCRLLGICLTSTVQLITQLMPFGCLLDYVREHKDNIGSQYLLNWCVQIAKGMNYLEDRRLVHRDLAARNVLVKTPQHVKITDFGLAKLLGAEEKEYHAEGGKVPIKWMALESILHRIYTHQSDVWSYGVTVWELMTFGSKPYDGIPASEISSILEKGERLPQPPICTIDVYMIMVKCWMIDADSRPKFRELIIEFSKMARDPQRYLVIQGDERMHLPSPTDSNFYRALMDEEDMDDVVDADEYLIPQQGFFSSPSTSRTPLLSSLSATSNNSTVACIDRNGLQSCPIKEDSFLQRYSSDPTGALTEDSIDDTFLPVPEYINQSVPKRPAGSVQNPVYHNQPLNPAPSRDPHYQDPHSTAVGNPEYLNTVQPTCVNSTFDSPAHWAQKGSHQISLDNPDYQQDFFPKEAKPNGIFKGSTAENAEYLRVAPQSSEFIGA

Target: EGFR (UniProt P00533)
Test: Inhibition of EGFR Kinase Activity

| IC50 | SMILES |
| --- | --- |
| 0.3 nM | COc1cc2ncnc(Nc3cccc(Cl)c3)c2cc1OC |
| 3.8 nM | COc1cc2ncnc(Nc3cccc(F)c3)c2cc1OC |
